Entries after “also recorded” stand apart in the source; their conditions may differ.
System: patients with HER2-positive MBC
Format: in vivo, human
From the text: Twenty-four patients were enrolled on the every-3-week dosing schedule, and 28 patients were enrolled on the weekly schedule. Prior to enrollment, patients had received nearly 2 years of trastuzumab (a median of 92 weeks for patients enrolled on the every-3-week schedule and 122 weeks for patients enrolled on the weekly schedule). The median number of prior chemotherapy agents for metastatic disease received by patients enrolled in this study was four for patients treated every 3 weeks and five for patients treated weekly.
Available data from the Phase I study are summarized below for all patients on both schedules. […] The most common (i.e., >25%) Grade ≧2 adverse events reported for patients on either schedule were thrombocytopenia, nausea (weekly schedule), fatigue, and headaches. The only Grade 4 events reported to date have been transient and reversible thrombocytopenia occurring in one patient at the 2.4 mg/kg weekly dosing schedule and in two patients at the 4.8 mg/kg every-3-week dosing schedule. […] One serious adverse event (pulmonary hypertension) was considered possibly related to study drug. All other reported serious adverse events were not considered to be drug related. […]

## T-DM1
4.8 mg/kg every 3 weeks, 3 patients treated
  patients with transient Grade 4 thrombocytopenia: two and Two
Either schedule
  drug-related cardiac toxicity: No cardiotoxicity has been observed; also recorded: No drug-related cardiac toxicity

From patent publication US20140044709A1, “TREATMENT OF HER2-POSITIVE CANCER WITH PACLITAXEL AND TRASTUZUMAB-MCC-DM1” (priority 2010, published 2014)
